# Membrane permeability of cyclic peptides

Data: CycPeptMPDB; original report Kelly et al. 2021, doi:10.1021/jacs.0c06115.

PAMPA measures passive passage through an artificial lipid membrane.
Permeability is in 10^-6 cm/s, converted from the database's log10 values; higher is more permeable.

CC(=O)N1CCC[C@H]1C(=O)N(C)[C@H](CC(C)C)C(=O)N[C@@H]1C(=O)N(C)[C@@H](CC(C)C)C(=O)N[C@H](CC(C)C)C(=O)N[C@H](CC(C)C)C(=O)N(C)[C@H](C)C(=O)N[C@H](CC(C)C)C(=O)N2CCC[C@H]2C(=O)O[C@@H]1C is reported with PAMPA 1.4 × 10^-6 cm/s.
CC(=O)N1CCC[C@@H]1C(=O)N(C)[C@@H](CC(C)C)C(=O)N[C@@H]1C(=O)N(C)[C@H](CC(C)C)C(=O)N(C)[C@@H](CC(C)C)C(=O)N(C)[C@@H](CC(C)C)C(=O)N[C@@H](C)C(=O)N[C@H](CC(C)C)C(=O)N2CCC[C@H]2C(=O)O[C@@H]1C is reported with PAMPA 7.4 × 10^-6 cm/s.
CC(=O)N1CCC[C@H]1C(=O)N[C@@H]1C(=O)N[C@H](CC(C)C)C(=O)N[C@@H](CC(C)C)C(=O)N[C@H](CC(C)C)C(=O)N(C)[C@@H](CC(C)C)C(=O)N(C)[C@@H](C)C(=O)N[C@@H](CC(C)C)C(=O)N2CCC[C@@H]2C(=O)O[C@@H]1C is reported with PAMPA 1.1 × 10^-6 cm/s.
CC(=O)N1CCC[C@H]1C(=O)N(C)[C@H](CC(C)C)C(=O)N[C@@H]1C(=O)N[C@@H](CC(C)C)C(=O)N[C@@H](CC(C)C)C(=O)N(C)[C@H](CC(C)C)C(=O)N[C@@H](C)C(=O)N[C@H](CC(C)C)C(=O)N2CCC[C@H]2C(=O)O[C@@H]1C is reported with PAMPA 0.54 × 10^-6 cm/s.
CC(=O)N1CCC[C@@H]1C(=O)N(C)[C@H](CC(C)C)C(=O)N[C@@H]1C(=O)N(C)[C@H](CC(C)C)C(=O)N(C)[C@H](CC(C)C)C(=O)N[C@@H](CC(C)C)C(=O)N(C)[C@@H](C)C(=O)N[C@H](CC(C)C)C(=O)N2CCC[C@@H]2C(=O)O[C@@H]1C is reported with PAMPA 10 × 10^-6 cm/s.
CC(=O)N1CCC[C@H]1C(=O)N(C)[C@@H](CC(C)C)C(=O)N[C@@H]1C(=O)N[C@H](CC(C)C)C(=O)N[C@H](CC(C)C)C(=O)N(C)[C@@H](CC(C)C)C(=O)N[C@@H](C)C(=O)N[C@@H](CC(C)C)C(=O)N2CCC[C@H]2C(=O)O[C@@H]1C is reported with PAMPA 0.81 × 10^-6 cm/s.
CC(=O)N1CCC[C@H]1C(=O)N(C)[C@H](CC(C)C)C(=O)N[C@@H]1C(=O)N(C)[C@H](CC(C)C)C(=O)N(C)[C@H](CC(C)C)C(=O)N[C@H](CC(C)C)C(=O)N[C@@H](C)C(=O)N[C@H](CC(C)C)C(=O)N2CCC[C@@H]2C(=O)O[C@@H]1C is reported with PAMPA 3 × 10^-6 cm/s.
CC(=O)N1CCC[C@H]1C(=O)N(C)[C@@H](CC(C)C)C(=O)N[C@@H]1C(=O)N(C)[C@@H](CC(C)C)C(=O)N[C@H](CC(C)C)C(=O)N[C@H](CC(C)C)C(=O)N(C)[C@H](C)C(=O)N[C@H](CC(C)C)C(=O)N2CCC[C@@H]2C(=O)O[C@@H]1C is reported with PAMPA 0.13 × 10^-6 cm/s.
CC(=O)N1CCC[C@H]1C(=O)N(C)[C@H](CC(C)C)C(=O)N[C@@H]1C(=O)N[C@@H](CC(C)C)C(=O)N[C@H](CC(C)C)C(=O)N[C@H](CC(C)C)C(=O)N[C@H](C)C(=O)N[C@H](CC(C)C)C(=O)N2CCC[C@@H]2C(=O)O[C@@H]1C is reported with PAMPA 0.12 × 10^-6 cm/s.
CC(=O)N1CCC[C@H]1C(=O)N(C)[C@@H](CC(C)C)C(=O)N[C@@H]1C(=O)N[C@H](CC(C)C)C(=O)N[C@@H](CC(C)C)C(=O)N(C)[C@H](CC(C)C)C(=O)N[C@H](C)C(=O)N[C@H](CC(C)C)C(=O)N2CCC[C@@H]2C(=O)O[C@@H]1C is reported with PAMPA 0.39 × 10^-6 cm/s.
CC(=O)N1CCC[C@@H]1C(=O)N(C)[C@H](CC(C)C)C(=O)N[C@@H]1C(=O)N[C@H](CC(C)C)C(=O)N(C)[C@H](CC(C)C)C(=O)N[C@H](CC(C)C)C(=O)N(C)[C@@H](C)C(=O)N[C@H](CC(C)C)C(=O)N2CCC[C@H]2C(=O)O[C@@H]1C is reported with PAMPA 8.7 × 10^-6 cm/s.
CC(=O)N1CCC[C@@H]1C(=O)N(C)[C@@H](CC(C)C)C(=O)N[C@@H]1C(=O)N(C)[C@@H](CC(C)C)C(=O)N[C@@H](CC(C)C)C(=O)N[C@@H](CC(C)C)C(=O)N[C@@H](C)C(=O)N[C@H](CC(C)C)C(=O)N2CCC[C@@H]2C(=O)O[C@@H]1C is reported with PAMPA 0.048 × 10^-6 cm/s.
CC(=O)N1CCC[C@H]1C(=O)N(C)[C@@H](CC(C)C)C(=O)N[C@@H]1C(=O)N(C)[C@@H](CC(C)C)C(=O)N(C)[C@H](CC(C)C)C(=O)N(C)[C@H](CC(C)C)C(=O)N[C@H](C)C(=O)N[C@@H](CC(C)C)C(=O)N2CCC[C@@H]2C(=O)O[C@@H]1C is reported with PAMPA 7.8 × 10^-6 cm/s.

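The data file gives no further conditions (lipid, pH, time, direction or concentration), and values from different papers need not be comparable. The list need not hold all peptides of the study. Peptides that the database sets to -10, its floor, are left out.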